Reference: patent publication US20140265007A1, “CLEANSING BARS COMPRISING SUPERHYDROPHILIC AMPHIPHILIC COPOLYMERS AND METHODS OF USE THEREOF” (JOHNSON & JOHNSON CONSUMER COMPANIES. INC., priority 2013, published 2014)

Experiment: Water solubility of hydrophobic reagent
Type: physicochemical
Settings: in water at 23° C.

## tetrapropenyl succinic anhydride [TPSA]
  water solubility: 2-5%
